Paper PMC8217266 (Clinical Pharmacology and Therapeutics, 2021)

Tested on: transporters at major organ sites
Assay: Prediction of transporter-mediated inhibition / DDI potential
Details: of 11 transporters; FDA criteria

COc1cc2c(c(OC)c1OC)-c1ccc(OC)c(=O)cc1[C@@H](NC(C)=O)CC2 [Colchicine]
No. of transporters at major organ sites inhibited at clinical concentrations: 0
